# Bioassay records deposited in PubChem by ICCB-Longwood Screening Facility, Harvard Medical School.
# GIV-Gai inh: blocks GIV peptide binding to rat Galpha-i3. P08753. Galpha-i3/FITC-GIV peptide fluorescence polarization, 90 min; hits give low values; scaled: aluminum fluoride 0%, vehicle 100%. percent of control (FP), % (concentration not given with the values). actives 0.42% (n = 210,000). AID 1224905;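 active = replicate mean at 85% of control or lower, very high polarization wells dropped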;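 also: wells of about 15 µL received 100 nL stock; the first replicate is given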
# GIV-Gai FP conf: confirmation of inhibitors of GIV binding to rat Galpha-i3. FITC-GIV peptide binding to Galphai3, fluorescence polarization; active compounds read low. fluorescence polarization, mP at 100 µM. AID 1259350. 38% of 580 active. shares compounds with GIV-Gai inh;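 active means inhibition score of 15 or more, meaning 100 minus mean polarization as percent of control over three replicates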;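 further: lower mP means peptide displaced from Galphai3 so more inhibition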
# GIV Gai AS conf: confirmation of inhibitors of GIV binding to human Galpha-i3; shares compounds with GIV-Gai inh; AlphaScreen Galphai3-GIV binding, purified proteins, 90 min; active compounds read low; AlphaScreen counts at 100 µM; 39% of 580 active; AID 1259351;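 active means inhibition score at or above a set limit, where the score is 100 minus the three-replicate mean percent of control signal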
# Starred values were filed as active, the others as inactive. This excerpt belongs to a sample that is enriched for hits.
SMILES,GIV-Gai inh,others
N#CC1=C(N)C(C#N)(C#N)C(c2ccccc2Cl)C2CN(Cc3ccccc3)CC=C12 (configuration not stated),188,
N#CC1=C(N)C(C#N)(C#N)C(c2cccc(Br)c2)C2CN(Cc3ccccc3)CC=C12 (configuration not stated),114,
N#CC1=C(N)C(C#N)(C#N)C(c2ccco2)C2CN(Cc3ccccc3)CC=C12 (configuration not stated),-43*,
Cc1nnc(SCC(=O)c2ccc(F)cc2)o1,105,
COCCOC(=O)C1=C(C)NC2=C(C(=O)CC(c3ccc(OC)c(OC)c3)C2)C1c1ccccc1OC (configuration not stated),100,
O=C(Nc1ccccn1)c1ccccc1Cl,103,
O=C(CN1C(=O)S/C(=C\c2ccc(O)cc2)C1=O)c1ccccc1,111,
CO/C=C1\SC(=S)N(CCc2ccccc2)C1=O,154,
O=C1/C(=C/c2ccc(O)cc2)SC(=S)N1CCc1ccccc1,-5.9*,
Cc1cc(C)n(C(=O)c2sccc2S(=O)(=O)N(C)c2ccc(C)c(F)c2)n1,108,
O=C(O)CSc1nc(O)cc(=O)[nH]1,95,
Cc1ccc(NC(=O)c2sc3nc(-c4cc5ccccc5oc4=O)[nH]c(=O)c3c2C)c(C)c1,25*,
Cc1c(C(=O)Nc2ccccc2)sc2nc(-c3cc4ccccc4oc3=O)[nH]c(=O)c12,102,
Cc1ccc(NC(=O)c2sc3nc(C)nc(N4CCN(C)CC4)c3c2C)c(C)c1,104,
CCOc1nc(SC)nc2sc3c(c12)CCN(C)C3,122,
Cn1c(C(F)(F)F)nc2c3nsnc3ccc21,106,
CCOC(=O)c1sc(NC(=O)C=C(C)C)c(C#N)c1C,100,
CCOC(=O)c1sc(N/C=C(\C#N)c2nc3cc(Cl)ccc3o2)c(C#N)c1C,-7.6*,
CCOC(=O)c1sc(NC(=O)C2c3ccccc3Oc3ccccc32)c(C#N)c1C,106,
O=C(NCc1ccccc1)c1cc(-c2ccc(F)cc2)nc2n[nH]c(-c3ccccc3)c12,99,
CC1CCN(C(=O)Cn2ncn3c(cc4sccc43)c2=O)CC1,96,
CC(=O)Nc1nonc1-c1nnc(SCc2ccc(C)cc2)n1C,98,
CC(=O)Nc1nonc1-c1nnc(SCC(=O)Nc2cc(C)cc(C)c2)n1C,101,
CC(=O)NC1=CC(=O)c2nonc2C1=O,4.4*,GIV-Gai FP conf=26*;GIV Gai AS conf=7791*
CCOC(=O)C1=C(C(=O)OCC)SC(=C2C(=S)C(C)(C)N(C(=O)c3cccc(OC)c3)c3ccc(OC)cc32)S1,114,
O=S(=O)(c1cccn2c(SCc3ccc(F)cc3Cl)nnc12)N1CCCCC1,99,
CCOC(=O)c1c(CSc2nc(CC(C)C)ccc2C#N)n(C)c2cc(Br)c(OC(C)=O)cc12,102,
O=C(Cc1ccccc1Cl)Nc1ccccn1,107,
O=C(Cc1ccccc1Cl)NC1(O)C(=O)c2ccccc2C1=O,70*,GIV-Gai FP conf=59;GIV Gai AS conf=49874
CN1CCN(NC(=O)Cc2ccccc2Cl)CC1,106,
CN(Cc1ccccc1)C(=O)c1nc(-c2ccccc2)n(-c2ccccc2)n1,97,
COC(=O)c1[nH]c2sc3c(c2c1N)CCCC3,20*,GIV-Gai FP conf=39*;GIV Gai AS conf=8300*
CCOC(=O)c1[nH]c2sc(C)c(C)c2c1N,83*,GIV-Gai FP conf=73;GIV Gai AS conf=8984*
COC(=O)c1c(N)sc2c1CCCC2,107,
CCOC(=O)c1[nH]c2ccccc2c1N,106,
CCOC(=O)c1[nH]c(C)c(C)c1O,100,
Nn1c(=O)[nH]c2sc3c(c2c1=O)CCCC3,107,
CCOc1ccc(NC(=O)CCn2c(=O)sc3ccccc32)cc1,99,
CCC(C)(C)C(=O)Nc1ccc(-n2c(C)nc3ccccc3c2=O)cc1,106,
O=C(Nc1ccc(-n2nc(C(F)(F)F)cc2-c2cccs2)cc1)c1ccno1,99,
Cc1ccc(-c2nc3ccccc3c(=O)[nH]2)cc1,101,
CC(C)(C)c1ccc(-c2nc3ccccc3c(=O)[nH]2)cc1,99,
O=c1[nH]c(-c2ccc(O)cc2)nc2ccccc12,88,GIV-Gai FP conf=69;GIV Gai AS conf=45426
Cc1nn(-c2ccccc2)nc1C(=O)Nc1ccc2[nH]ccc2c1,100,
Fc1ccccc1N1CCN(c2ncnc3c2cnn3-c2ccc(Cl)cc2)CC1,106,

# Five compounds picked at random from those above, as already listed:
SMILES,GIV-Gai inh,others
Cc1nn(-c2ccccc2)nc1C(=O)Nc1ccc2[nH]ccc2c1,100,
Fc1ccccc1N1CCN(c2ncnc3c2cnn3-c2ccc(Cl)cc2)CC1,106,
CCOC(=O)c1[nH]c2sc(C)c(C)c2c1N,83*,GIV-Gai FP conf=73;GIV Gai AS conf=8984*
CCOC(=O)c1[nH]c2ccccc2c1N,106,
Nn1c(=O)[nH]c2sc3c(c2c1=O)CCCC3,107,

# Returning to the listing, starting 3 compounds before the break.
SMILES,GIV-Gai inh,others
O=c1[nH]c(-c2ccc(O)cc2)nc2ccccc12,88,GIV-Gai FP conf=69;GIV Gai AS conf=45426
Cc1nn(-c2ccccc2)nc1C(=O)Nc1ccc2[nH]ccc2c1,100,
Fc1ccccc1N1CCN(c2ncnc3c2cnn3-c2ccc(Cl)cc2)CC1,106,
CCc1ccc(S(=O)(=O)c2cnc(N3CCC(C)CC3)nc2N)cc1,97,
O=c1[nH]c(NCCO)nc2ccccc12,102,
Cc1[nH]c(=O)[nH]c(=O)c1S(=O)(=O)NCCO,103,
O=c1[nH]c(NCCO)c(I)c(=O)[nH]1,57*,GIV-Gai FP conf=43*;GIV Gai AS conf=2885*
O=C(COc1ccc(Cl)cc1Cl)Nn1c(-c2cccc([N+](=O)[O-])c2)nc2ccccc2c1=O,101,
COc1cc(-c2nc3ccccn3c2N)ccc1O,24*,GIV-Gai FP conf=51;GIV Gai AS conf=18629*
Nc1c(-c2ccccc2)nc2ccccn12,103,
COc1cc(-c2nc3ccccn3c2/N=C/c2sccc2C)ccc1O,104,
Cc1cc(C)cc(-n2c(-c3ccc(Cl)cc3)cn3c4c(=O)n(C)c(=O)n(C)c4nc23)c1,98,
O=C1Nc2ccccc2C(=O)C1(O)O,103,
CCOC1(c2ccccc2)OC(=O)c2ccccc21 (configuration not stated),102,
CCN(c1ccccc1)C1(O)C(=O)c2ccccc2C1=O,96,
CCOC1(O)C(=O)c2ccccc2C(=O)C1(O)OCC (configuration not stated),72*,GIV-Gai FP conf=65;GIV Gai AS conf=46438
O=C1c2ccccc2C2=Nc3ccccc3OC12O (configuration not stated),102,
O=C1c2ccccc2C(=O)C2(O)OCCOC12O (configuration not stated),51*,GIV-Gai FP conf=62*;GIV Gai AS conf=34751
CNC(=O)Cn1cccc1C(=O)c1ccccc1,109,
NC(=O)c1ccccc1NC(=O)Cc1c(F)cccc1Cl,105,
O=C1CCCC(O)=C1C=Nc1ccccc1,98,
O=C1CCCC(O)=C1C=Nc1ccc(N=CC2=C(O)CCCC2=O)cc1,101,
O=C1CCCC(O)=C1C=NCCCn1ccnc1,87,GIV-Gai FP conf=66;GIV Gai AS conf=3828*
O=C(CCl)NCC1(c2ccccc2)CCCC1,107,
Clc1ccc(-c2noc3ncnc(Nc4ccccc4)c23)cc1,97,
CC(C)n1c(N2CCN(C(=O)C3CCC3)CC2)cc(=O)n(C(C)C)c1=O,110,
COc1ccc(C2CC(=O)N(c3ccc(OC)c(OC)c3)C(=O)C2)cc1OC,94,
CCCC(=O)N(c1ccc2oc(C)c(C(=O)OCC)c2c1)S(=O)(=O)c1ccc(Br)cc1,98,
CCOc1ccc(C(c2c(C)[nH]n(-c3ccccc3)c2=O)c2c(C)[nH]n(-c3ccccc3)c2=O)cc1,101,
Cc1[nH]n(-c2ccccc2)c(=O)c1C(c1ccc(OC(=O)c2ccccc2F)cc1)c1c(C)[nH]n(-c2ccccc2)c1=O,105,
Cc1[nH]n(-c2ccccc2)c(=O)c1C(c1cc([N+](=O)[O-])ccc1O)c1c(C)[nH]n(-c2ccccc2)c1=O,76*,GIV-Gai FP conf=64;GIV Gai AS conf=23681*
Cc1[nH]n(-c2ccccc2)c(=O)c1C(c1ccccc1F)c1c(C)[nH]n(-c2ccccc2)c1=O,88,
Cc1[nH]n(-c2ccccc2)c(=O)c1C(c1ccccc1[N+](=O)[O-])c1c(C)[nH]n(-c2ccccc2)c1=O,100,
